Binding of CDR-mutated scFvs to a peptide of the spike HR2 region

Source: Engelhart et al. 2022 (doi:10.1038/s41597-022-01779-4), MIT Lincoln Laboratory and A-Alpha Bio; data file from the FLAb repository.

Binding partner: SARS-CoV-2 spike HR2 peptide, sequence PDVDLGDISGINAS.

Parent: Ab-95, a human scFv built as VH, a 15-residue (Gly4Ser)3 linker, VL. Only the CDRs of the light chain vary.
VH: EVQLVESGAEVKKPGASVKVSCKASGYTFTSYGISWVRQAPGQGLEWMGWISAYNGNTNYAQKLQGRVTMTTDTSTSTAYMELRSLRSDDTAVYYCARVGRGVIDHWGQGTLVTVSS
VL: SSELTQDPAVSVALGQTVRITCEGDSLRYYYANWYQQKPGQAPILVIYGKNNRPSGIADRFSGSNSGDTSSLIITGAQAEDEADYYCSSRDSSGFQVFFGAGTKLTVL

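The parent was found by panning a naive human phage display library on the peptide. Library AAYL52 holds single substitutions and randomly drawn double and triple substitutions in the CDRs. AlphaSeq pools MATa yeast showing the antibodies with MATalpha yeast showing the peptide. The frequency of each diploid, read from paired DNA barcodes, reflects how well the two displayed proteins bind. The ratio of observed to expected reads was calibrated, replicate by replicate, on BCL2-family standards whose Kd was known from biolayer interferometry. Mating was done three times.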

Each variant is given by its three light chain CDRs, as the data file delimits them; those of the parent are EGDSLRYYYAN, GKNNRPS, SSRDSSGFQVF. The read-out is the apparent dissociation constant on a log10 scale (nM): the lower, the stronger. Averages over replicates are reported, and they cover detected replicates only. An entry "no signal" has no value in the source: the pair was not observed among the diploids in any replicate. This suggests poor binding but is not conclusive. Parent in this assay: reference entry 2.31, copy in this library 2.25.

{"CDR-L1": "EGDSLRKYMAN", "CDR-L2": "GKNNRPS", "CDR-L3": "SSRDSSGFQVF", "mean, log10 nM": "1.86", "replicates with signal": "3/3"}
{"CDR-L1": "EGDSLRYYYAN", "CDR-L2": "MQNNQPS", "CDR-L3": "SSRDSSGFQVF", "mean, log10 nM": "3.94", "replicates with signal": "1/3"}
{"CDR-L1": "EYDSLRYYYAN", "CDR-L2": "GKNNRPS", "CDR-L3": "SSRHSSGPQVF", "mean, log10 nM": "4.25", "replicates with signal": "3/3"}
{"CDR-L1": "EGCSLRYYYFN", "CDR-L2": "GKNNRLS", "CDR-L3": "SSRDSSGFQVF", "mean, log10 nM": "3.87", "replicates with signal": "2/3"}
{"CDR-L1": "EGDQLRYYYAN", "CDR-L2": "GKNNRPS", "CDR-L3": "SSRRSSGFQVF", "mean, log10 nM": "no signal", "replicates with signal": "0/3"}
{"CDR-L1": "FGDSLRYYYYN", "CDR-L2": "GKNNRPS", "CDR-L3": "SSRDSSGFQKF", "mean, log10 nM": "no signal", "replicates with signal": "0/3"}
{"CDR-L1": "EGISLRYYYAN", "CDR-L2": "GKNNRPS", "CDR-L3": "VSRDSSGFQAF", "mean, log10 nM": "4.67", "replicates with signal": "1/3"}
{"CDR-L1": "EGDSLRYYYAC", "CDR-L2": "GTNNNPS", "CDR-L3": "SSRDSSGFQVF", "mean, log10 nM": "no signal", "replicates with signal": "0/3"}
{"CDR-L1": "EGDSLRYYYAN", "CDR-L2": "GKQNPPS", "CDR-L3": "SSRDSSGFIVF", "mean, log10 nM": "4.25", "replicates with signal": "2/3"}
{"CDR-L1": "EGDSLLYYYAN", "CDR-L2": "GKNNRPS", "CDR-L3": "SERDSSGFQRF", "mean, log10 nM": "2.12", "replicates with signal": "3/3"}
{"CDR-L1": "EQDSLRYYYAN", "CDR-L2": "GKNNRPS", "CDR-L3": "SSRDSSKKQVF", "mean, log10 nM": "4.67", "replicates with signal": "2/3"}
{"CDR-L1": "ELDSLREYYAN", "CDR-L2": "GKNNRPS", "CDR-L3": "SSRDESGFQVF", "mean, log10 nM": "no signal", "replicates with signal": "0/3"}
{"CDR-L1": "EGDSLRYYYHN", "CDR-L2": "GKNNRPS", "CDR-L3": "SSHDSSGFQGF", "mean, log10 nM": "5.51", "replicates with signal": "1/3"}
{"CDR-L1": "SGDSLRYYDAN", "CDR-L2": "GKNNRPS", "CDR-L3": "SSRDSSTFQVF", "mean, log10 nM": "3.04", "replicates with signal": "3/3"}
{"CDR-L1": "EGDSLNYYYAN", "CDR-L2": "GKNNFPS", "CDR-L3": "GSRDSSGFQVF", "mean, log10 nM": "no signal", "replicates with signal": "0/3"}
{"CDR-L1": "EWDSPRYYYAN", "CDR-L2": "GKNNRPI", "CDR-L3": "SSRDSSGFQVF", "mean, log10 nM": "4.00", "replicates with signal": "2/3"}
{"CDR-L1": "WGDSLRYYYAN", "CDR-L2": "GKNNRPS", "CDR-L3": "SSWDSSGFQVF", "mean, log10 nM": "no signal", "replicates with signal": "0/3"}
{"CDR-L1": "EFDSLRYYYAN", "CDR-L2": "GKNNRPS", "CDR-L3": "SSPDSSGHQVF", "mean, log10 nM": "3.80", "replicates with signal": "2/3"}
{"CDR-L1": "EGDSLRYYYAN", "CDR-L2": "GKTNEPS", "CDR-L3": "SSRDYSGFQVF", "mean, log10 nM": "2.48", "replicates with signal": "3/3"}
{"CDR-L1": "EWDSLRYYYAN", "CDR-L2": "MKNNRPS", "CDR-L3": "SSMDSSGFQVF", "mean, log10 nM": "no signal", "replicates with signal": "0/3"}
{"CDR-L1": "EGDALFYYYAN", "CDR-L2": "GKNNRPS", "CDR-L3": "SSRDSSGFQVL", "mean, log10 nM": "2.84", "replicates with signal": "3/3"}
{"CDR-L1": "EGISLRYYYAN", "CDR-L2": "GKNNRPS", "CDR-L3": "SLRDSSGFQVF", "mean, log10 nM": "2.39", "replicates with signal": "3/3"}
{"CDR-L1": "EGDSLPYYYAN", "CDR-L2": "GKNNRMS", "CDR-L3": "SSRDSSGFQVF", "mean, log10 nM": "2.45", "replicates with signal": "3/3"}
{"CDR-L1": "SGDSLRYYYAN", "CDR-L2": "GKNNRPS", "CDR-L3": "SDNDSSGFQVF", "mean, log10 nM": "4.67", "replicates with signal": "1/3"}
{"CDR-L1": "EGDSLRYYHAN", "CDR-L2": "GKNNPPS", "CDR-L3": "SSRDDSGFQVF", "mean, log10 nM": "3.18", "replicates with signal": "2/3"}
{"CDR-L1": "EGDSLRYYYAN", "CDR-L2": "GKNNRPS", "CDR-L3": "SKQDSSGFQNF", "mean, log10 nM": "2.28", "replicates with signal": "3/3"}
{"CDR-L1": "EGDSRRYYYAN", "CDR-L2": "GKNNRPS", "CDR-L3": "SSRDSSEFQVF", "mean, log10 nM": "5.33", "replicates with signal": "3/3"}
{"CDR-L1": "FGDSLRYYYGN", "CDR-L2": "GKNNRPS", "CDR-L3": "SSRDMSGFQVF", "mean, log10 nM": "2.83", "replicates with signal": "2/3"}

The first 2 variants above that were never detected:

CDR-L1,CDR-L2,CDR-L3,"mean, log10 nM",replicates with signal
EGDQLRYYYAN,GKNNRPS,SSRRSSGFQVF,no signal,0/3
FGDSLRYYYYN,GKNNRPS,SSRDSSGFQKF,no signal,0/3

Three control strains display no target. For library AAYL52, 28% of the pairings with them gave a signal, with a median of 3.91 and one signal in twenty below 2.90, so weak values seen in few replicates may be background.